Measurements from published antibiotic growth screens (doi:10.1038/s41589-023-01349-8).
This is one part of the list.

What follows are compounds tested on A. baumannii ATCC 17978 (assay: relative growth (fraction of control); higher = less inhibition). Settings: 50 µM.

| Compound | relative growth |
| --- | --- |
| COc1c(O)cc2oc3cc(O)c(CC=C(C)C)c(O)c3c(=O)c2c1CC=C(C)C [alpha-MANGOSTIN] | 1.03 |
| NC(=O)c1cc[n+](CC2=C(C(=O)[O-])N3C(=O)C(NC(=O)C(c4ccccc4)S(=O)(=O)[O-])C3SC2)cc1.[Na+] (stereo unspecified) | 0.903 |
| COCC(=O)N1C[C@H](C)[C@@H](OC)CN(C)C(=O)c2cc(NC(=O)c3cc(C)on3)ccc2OC[C@H]1C | 1 |
| CC1(C)C[C@@H]2C(=O)CC[C@H]3O[C@]3(C)CC[C@H]21 | 0.906 |
| COC(=O)/C=C/c1cn([C@H]2OC[C@@H](CO)[C@@H]2O)c(=O)[nH]c1=O | 1.07 |
| O=c1[nH]c2ccccc2c(=O)n1CCCO | 0.93 |
| CC1CCN(S(=O)(=O)c2c[nH]cn2)CC1 | 0.965 |
| C[C@H](CO)N1C[C@H](C)[C@H](CN(C)C(=O)CN2CCOCC2)Oc2cc(C#Cc3cccc(F)c3)ccc2S1(=O)=O | 1.04 |
| Nc1nc(=O)c2c([nH]1)NCC(CNc1ccc(C(=O)N[C@@H](CCC(=O)[O-])C(=O)[O-])cc1)N2C=O.[Ca+2] (stereo partly specified) | 0.852 |
| CN(C)CCCCNC(=O)[C@@H]1C[C@@H]2C(=O)N[C@@H](CCCC[N+](C)(C)C)C(=O)N2[C@@H]1c1ccc(O)cc1 | 0.963 |
| O=C1CCC(N2C(=O)c3ccccc3C2=O)C(=O)N1 (stereo unspecified) | 1.08 |
| O=C1O[C@H](c2ccccc2)[C@H](c2ccccc2)N2[C@H]1[C@@H](C(=O)Nc1nc3ccccc3s1)[C@]1(C(=O)Nc3ccc(C#CCCO)cc31)[C@H]2c1ccc(OCCO)cc1 | 0.782 |
| Cc1ccc(S(=O)(=O)N2C[C@H](O)COC[C@@H]3O[C@H](CC(=O)NCc4ccc5c(c4)OCO5)CC[C@H]32)cc1 | 1.04 |
| Cc1ccc(S(=O)(=O)N[C@@H]2C=C[C@H](CC(=O)NCCN3CCCCC3)O[C@@H]2CO)cc1 | 1.1 |
| CN(C)CCCNC(=O)C[C@H]1CC[C@@H](NS(=O)(=O)c2ccccc2)[C@H](CO)O1 | 1.03 |
| COc1ccc([Si](C)(C)[C@H]2[C@H](CCn3cc(CCO)nn3)O[C@@]3(C(=O)N(C)c4ccccc43)[C@@H]2C)cc1 | 0.851 |
| C[C@H](CO)N1C[C@H](C)[C@@H](CN(C)Cc2ccccn2)Oc2cc(C#CCN(C)C)ccc2S1(=O)=O | 0.907 |
| CC(O)(P(=O)([O-])O)P(=O)([O-])O.[Na+].[Na+] | 1.03 |
| Cl.N=C(N)NC(=N)N1CCOCC1 | 1.13 |
| CCCNC(=O)N[C@@H]1C=C[C@H](CC(=O)N2CCN(C)CC2)O[C@@H]1CO | 1.05 |
| CN(C)Cc1nc(=O)c2ccccc2[nH]1 | 0.88 |
| CN/C(=C\[N+](=O)[O-])NCCSCc1ccc(CN(C)C)o1.Cl | 1.08 |

| Compound | relative growth |
| --- | --- |
| O=C(NO)c1ccc(C(=O)N/N=C/[C@H](O)[C@@H](O)[C@H](O)[C@H](O)CO[C@H]2O[C@H](CO)[C@H](O)[C@H](O)[C@H]2O)cc1 | 1.11 |
| O=C1OC(CN2CCOCC2)CN1/N=C/c1ccc([N+](=O)[O-])o1 (stereo unspecified) | 0.969 |
| CC(=O)OCN1CCN(COC(C)=O)C1=O | 1.13 |
| Cn1cnc(S(=O)(=O)N2C[C@@H](O)COC[C@H]3O[C@H](CC(=O)N4CCN(c5ccccc5)CC4)CC[C@@H]32)c1 | 0.805 |
| O=C(C[C@H]1CC[C@H](NC(=O)CN2CCOCC2)[C@@H](CO)O1)NCc1cccc(F)c1 | 0.992 |
| CO[C@@H]1CN(C)C(=O)c2ccc(NS(C)(=O)=O)cc2OC[C@H](C)N(C(=O)CN(C)C)C[C@@H]1C | 1.04 |
| CCS(=O)(=O)NCC[C@H]1CC[C@H](NS(=O)(=O)c2cccc(F)c2)[C@H](CO)O1 | 1.04 |
| Cn1c(=O)c2c(NCCc3ccc(S(N)(=O)=O)cc3)ccnc2n(C)c1=O | 1.05 |
| O=C(O)[C@]1(O)C[C@@H](O)[C@@H](O)[C@H](O)C1 | 0.988 |
| Cc1ccc(S(=O)(=O)N2C[C@H](O)COC[C@H]3O[C@H](CC(=O)NCc4ccc(Cl)c(Cl)c4)CC[C@@H]32)cc1 | 1 |
| COc1cc2c(cc1OC)CN(C(=O)[C@H]1[C@@H]3C(=O)O[C@@H](c4ccccc4)[C@@H](c4ccccc4)N3[C@@H](c3ccccc3OCCO)[C@]13C(=O)Nc1ccc(C#CC4(O)CCCCCC4)cc13)CC2 | 1.15 |
| COc1ccc(/C=C/C(=O)c2cc(O)ccc2O)cc1 | 1.06 |
| Cc1cccc(Nc2ccccc2C(=O)O)c1C | 1.09 |
| CCCCOc1ccc(OCCCN2CCOCC2)cc1.Cl | 0.981 |
| NC(=O)N[C@H]1NC(=O)NC1=O | 1.08 |
| CCOC(=O)Cc1nnc(CC(=O)OCC)[nH]1 | 0.98 |
| OC[C@@H](O)[C@@H](O)[C@@H](O)[C@@H](O)[C@@H](O)CO | 0.965 |
| O=C(C[C@H]1CC[C@H](NC(=O)Cc2ccccn2)[C@H](CO)O1)NCCCN1CCOCC1 | 1.03 |
| NCCCC(O)(P(=O)(O)O)P(=O)(O)O.O.O.O.[Na+] | 1.15 |
| O=C(C[C@H]1C=C[C@@H](NC(=O)CN2CCOCC2)[C@H](CO)O1)NCc1cccc(F)c1 | 0.926 |
| COCC#Cc1cnc2c(c1)C(=O)N([C@@H](C)CO)C[C@H](C)[C@@H](CN(C)S(=O)(=O)c1cn(C)cn1)O2 | 0.929 |
| C=CCSCC=C | 0.915 |

| Compound | relative growth |
| --- | --- |
| C[C@H](CO)N1C[C@H](C)[C@H](CN(C)Cc2ccccn2)Oc2cc(C#CCN(C)C)ccc2S1(=O)=O | 1.02 |
| O=c1[nH]cnc2[nH]ncc12 | 1.06 |
| C/C=C1\[C@H]2C=C(C)C[C@]1(N)c1ccc(=O)[nH]c1C2 | 0.98 |
| O=C(Cc1ccccn1)NCC[C@H]1CC[C@H](NC(=O)CN2CCOCC2)[C@H](CO)O1 | 0.928 |
| C[N+](C)(C)CCO.[Cl-] | 1.17 |
| O=C(Oc1cccc2cccnc12)c1ccccc1 | 0.735 |
| C[C@H](CO)N1C[C@H](C)[C@H](CN(C)C(=O)CN(C)C)Oc2cc(C#CCN(C)C)ccc2S1(=O)=O | 1.16 |
| CC(=O)OCC(=O)[C@@]1(O)[C@@H](C)CC2C3CCC4=CC(=O)C=C[C@]4(C)[C@@]3(F)[C@@H](O)C[C@@]21C (stereo partly specified) | 0.895 |
| CCOc1nc(N)cc(N)c1C#N | 0.988 |
| CN(C)C(=O)C[C@@H]1CC[C@@H](NC(=O)C2CCOCC2)[C@@H](CO)O1 | 1.11 |
| O=C(O[C@H]1[C@H](O)[C@@H](CO)O[C@H](c2c(O)cc(O)c(C(=O)c3ccc(O)cc3)c2O)[C@H]1OC(=O)c1cc(O)c(O)c(O)c1)c1cc(O)c(O)c(O)c1 | 1.05 |
| COc1ccc(S(=O)(=O)N[C@H]2C=C[C@@H](CC(=O)N3CCN(c4ccccc4)CC3)O[C@@H]2CO)cc1 | 0.97 |
| Cc1cc(O)c2c(c1)C(=O)c1cc(O)cc(O)c1C2=O | 0.854 |
| COc1cc2c(cc1OC)CN(C(=O)[C@H]1[C@@H]3C(=O)O[C@@H](c4ccccc4)[C@@H](c4ccccc4)N3[C@@H](c3ccc(O)cc3)[C@]13C(=O)Nc1ccc(C#CC4=CCCCC4)cc13)CC2 | 1.04 |
| CC[N+](C)(C)Cc1ccc(Br)cc1.Cc1ccc(S(=O)(=O)[O-])cc1 | 1.13 |
| O=c1[nH]c2ccsc2c(=O)n1CCO | 1.01 |
| CC(C)C[C@H](NP(=O)(O)O[C@H]1O[C@@H](C)[C@@H](O)[C@@H](O)[C@@H]1O)C(=O)N[C@H](Cc1c[nH]c2ccccc12)C(=O)O | 1.06 |
| O=C(C[C@H]1CC[C@H]2[C@@H](COC[C@@H](O)CN2S(=O)(=O)c2ccc(F)cc2)O1)NCCN1CCCCC1 | 1.05 |
| Cc1ccc(CSc2ncc(C(F)(F)F)cc2Cl)cc1 | 0.909 |
| Cl.Fc1ccc([C@@H]2CCNC[C@H]2COc2ccc3c(c2)OCO3)cc1 | 1.22 |
| Cc1ncc(CO)c(/C=N/O)c1O | 1.04 |
| Cc1cc(=O)nc(SCC(N)=O)[nH]1 | 1.11 |

| Compound | relative growth |
| --- | --- |
| CN(C)CCCNC(=O)[C@@]1(Cc2ccccc2I)c2ccccc2C(=O)N(C2CCCCC2)[C@H]1c1ccc(CO)cc1 | 0.987 |
| COC(=O)NCCOc1nc(N(C)C)nc(N(C)C)n1 | 0.915 |
| CCCNC(=O)Nc1ccc2c(c1)C(=O)N(C)C[C@H](OC)[C@H](C)CN(C(=O)C1CCOCC1)[C@H](C)CO2 | 1.25 |
| O=C(NC1CCCCC1)NC1CCCCC1 | 0.999 |
| CC(=O)O[C@@H]1CC[C@@]2(C)C(CC[C@]3(C)C2CC=C2C4CC(C)(C)CC[C@]4(C(=O)O)CC[C@]23C)C1(C)C (stereo partly specified) | 0.839 |
| CC12CCC3C(=CCc4cc(O)ccc43)C1CCC2=O (stereo unspecified) | 0.933 |
| C[C@H]1COc2c(N3CCN(C)CC3)c(F)cc3c(=O)c(C(=O)O)cn1c23 | 0.146 |
| COC(=O)c1c2oc(c1C(=O)OC)C(=O)N[C@H](Cc1ccccc1)Cn1cc(nn1)[C@@H](Cc1ccccc1)NC(=O)N[C@@H](CO)CC2 | 1.11 |
| C=C1CCC2C(CC2(C)C)C(=O)CCC1O (stereo unspecified) | 0.976 |
| O=c1[nH]cc(COCc2ccccc2)c(=O)[nH]1 | 1.05 |
| O=C(C[C@@H]1CC[C@H]2[C@@H](COC[C@@H](O)CN2S(=O)(=O)c2ccccc2F)O1)NCc1ccccc1Cl | 1.1 |
| CCS(=O)(=O)NCC[C@@H]1CC[C@@H](NC(=O)C2CCOCC2)[C@@H](CO)O1 | 1.02 |
| Cl.N[C@@H]1[C@@H](O)[C@H](O)[C@@H](CO)O[C@H]1O | 0.941 |
| Nc1ccn(C2O[C@H](CO)[C@@H](O)[C@H]2O)c(=O)n1 (stereo partly specified) | 1.11 |
| NC(=O)CSc1ccccn1 | 0.984 |
| O=C(C[C@H]1C=C[C@H](NC(=O)Cc2ccccn2)[C@H](CO)O1)NCCCN1CCOCC1 | 1.05 |
| COc1ccc(NC(=O)N(C)C[C@H]2Oc3cc(C#CCN(C)C)ccc3S(=O)(=O)N([C@H](C)CO)C[C@H]2C)cc1 | 1.08 |
| O=C(CCCCC(=O)N/N=C/[C@H](O)[C@H](O)[C@@H](O)[C@@H](O)CO)NO | 0.937 |
| CNC[C@@H]1Oc2cc(C#CC(C)(C)O)ccc2S(=O)(=O)N([C@@H](C)CO)C[C@@H]1C | 1.11 |
| C=CCNC(=O)CSc1nc(=O)cc(N)[nH]1 | 1.04 |
